Screening data (PubChem)
Lamin A splicing – LMNA splicing modulation | HeLa LMNA splicing GFP/RFP minigene ratio, 48 h | Potency, µM (series often up to 46.1 µM), inactives show top-dose ratio change, negative = inhibition, most hits filed as inhibitors | 200,000 tested, 0.01% active | AID 1487; active = well fitted inhibition curve with a large enough effect in the signal ratio, with a control signal flat, not every such curve was filed as active; inconclusive = small, poorly fitted or top-dose-only effect, or effect the other way, or a change in a side signal; the % refers to the signal ratio; note: potency is the fitted concentration of half-maximal effect; % is set by controls: 0 for no effect and ±100 for the full control effect
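S3 HeLa cells stably expressing lamin A-EGFP splicing minigene plus DsRed2, 600 cells/well, 48 h compound exposure at 37C. Laser-scanning cytometry; analysed as GFP (500-530 nm)/RFP (575-640 nm) total intensity ratio; 0.5% DMSO vehicle.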
Sfp inh – Sfp phosphopantetheinyl transferase inhibition. 3.5% of 310,000 active. AID 1490. Potency, µM, inactives show max response, negative = inhibition, actives largely listed as inhibitors. Biochemical Sfp PPTase activity, qHTS; active = well fitted inhibition curve with a large enough effect; inconclusive = small, poorly fitted or top-dose-only effect, or another doubt; inactive = no such curve, though single readings can be large or run the other way;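 note: the enzyme is Sfp with the accession as filed and its product quenches rhodamine fluorescence; potency is the fitted concentration of half-maximal effect; 0% = enzyme reaction without inhibitor and -100% = no enzyme wells; top concentration of the series not given in the record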
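Reaction rates are the 30-min fluorescence difference (ex 525, em 598 nm) in wells containing 15 nM Sfp, 5 uM rhodamine-CoA and 12.5 uM BHQ-2-YbbR at pH 7.6 with 10 mM MgCl2.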
G9a inh – G9a (human) methyltransferase inhibition; G9a H3K9 monomethylation, AlphaScreen, 2 h; 350,000 tested, 8.8% active; AID 504332; Q96KQ7; Potency, µM (highest dose often 102 µM), without a hit: at the top dose activity, negative = inhibition, actives largely listed as inhibitors; note: potency is the fitted concentration of half-maximal effect; % is set by controls: 0 for no effect and ±100 for the full control effect; nearly all actives have a fitted effect of over 75% in size
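Using a bead-based AlphaScreen, monomethylated H3K9 product from 2 h room-temperature reactions (G9a 20 nM, peptide 500 nM, SAM 20 uM) was detected with 0.5 ug/mL rabbit anti-H3K9me1 antibody.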
miR-21 reporter – miR-21 reporter, rising signal. 340,000 tested, under 10 active. Potency, µM (highest dose often 38.3 µM), for the others: at the highest dose reporter change, positive = more light. HeLa miR-21 FLuc reporter, luciferase, 48 h. AID 2288; active = well fitted rising curve with a large enough effect; inconclusive = small, poorly fitted or top-dose-only effect; inactive = no such curve, though single readings can be large or run the other way;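 further: % of control where 0% means no effect; miR-21 action dims this reporter so a rising signal means less miR-21 action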
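Compounds were titrated across several concentrations (up to approximately 40 uM) and incubated 48 hours with HeLa miR-21-FLuc reporter cells (miR-21 target sequence downstream of FLuc, endogenous miR-21). Readout was firefly luciferase luminescence after lytic detection reagent.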
JMJD2E inh – blocks human JMJD2E demethylase activity; B2RXH2; JMJD2E catalytic domain, FDH-coupled NADH fluorescence (FDH is formaldehyde dehydrogenase); Potency, µM (titrated, usually from 57.1 µM), without a hit: top-dose activity change, negative = inhibition, hits mostly inhibitors; 230,000 tested, 1.6% active; AID 2147; active = well fitted inhibition curve with a large enough effect, not every such curve was filed as active; inconclusive = small, poorly fitted or top-dose-only effect, or another doubt; inactive = no such curve, though single readings can be large or run the other way;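 note: potency is the fitted concentration of half-maximal effect; 0% = wells with enzyme and -100% = buffer wells without enzyme; nearly all actives have a fitted effect of over 50% in size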
ALDH1A1 block – blocks purified human ALDH1A1 activity; Purified ALDH1A1, NADH fluorescence, propionaldehyde substrate; AID 1030; 220,000 tested, 7.3% active; Potency, µM (top dose mostly 75.3 µM), for the others: at the top dose activity, negative = inhibition, most hits filed as inhibitors; active = well fitted inhibition curve with a large enough effect, not every such curve was filed as active; inconclusive = small, poorly fitted or top-dose-only effect, or another doubt; inactive = no such curve, though single readings can be large or run the other way;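 note: potency is the fitted concentration of half-maximal effect; plate controls were no enzyme wells and a reference inhibitor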
* marks the source's active call; other numbers are inactive results; [ ] = dose if it differs, or a comment. A selection: hits, their analogues and other compounds. The true share with any hit is near 13%. Unless noted, calls come from the whole dose curve; as a rule, active = well fitted curve in the direction sought with a large enough effect; inconclusive = small, poorly fitted or top-dose-only effect, or another doubt; inactive = no such curve, though single readings can be large; an effect the other way counts as inactive or inconclusive.

`CC(C)C(=O)NC(=S)/C=C1/N(C)c2ccccc2C1(C)C` gave Lamin A splicing 1%[46 µM], Sfp inh inconclusive, G9a inh 40µM*, miR-21 reporter 3%, JMJD2E inh -28% and ALDH1A1 block 8.9µM*.
`CN1/C(=C/C(=S)NC(=O)C2CCC2)C(C)(C)c2ccccc21` gave Lamin A splicing -4%[46 µM], Sfp inh inconclusive, G9a inh 40µM*, miR-21 reporter -9%, JMJD2E inh 1% and ALDH1A1 block inconclusive.
`Cc1ccc(C(=O)NC(=S)/C=C2\N(C)c3ccccc3C2(C)C)cc1` gave Lamin A splicing inconclusive, Sfp inh inconclusive, G9a inh 14µM*, miR-21 reporter -11%, JMJD2E inh -10% and ALDH1A1 block inconclusive.
For Cc1c(NC(=S)/C=C2\N(C)c3ccccc3C2(C)C)c(=O)n(-c2ccccc2)n1C the results were Lamin A splicing -2%, Sfp inh 50µM*, G9a inh 32µM*, miR-21 reporter 4%, JMJD2E inh -7% and ALDH1A1 block -5%.
Screening COc1ccc(C2CC(c3cccs3)=Nc3ccccc3S2)cc1 (stereo not drawn) returned Lamin A splicing -22%, Sfp inh 22µM*, G9a inh inconclusive, miR-21 reporter -38%, JMJD2E inh 3% and ALDH1A1 block 0%.
Screening CC(=O)Oc1cc2c(cc1Cl)C(c1cccs1)CC1(CC(C)(C)NC(=S)N1)O2 (stereo not drawn) returned Lamin A splicing inconclusive, Sfp inh 0%, G9a inh 6%, miR-21 reporter 4%, JMJD2E inh -4% and ALDH1A1 block 1%.
For COc1ccc(N2CCN(c3nc(=S)n(-c4ccccc4)c(C)c3C(C)=O)CC2)cc1 the results were Lamin A splicing -5%, Sfp inh 0%, G9a inh -13%[59 µM], miR-21 reporter -3%, JMJD2E inh -13% and ALDH1A1 block inconclusive.
`CC(=O)c1c(N2CCN(c3cccc(Cl)c3)CC2)nc(=S)n(-c2ccccc2)c1C` gave Lamin A splicing -16%, Sfp inh 23%, G9a inh 11%[59 µM], miR-21 reporter 0%, JMJD2E inh 5% and ALDH1A1 block -3%.
`CCn1c(C)c(C(C)=O)c(N2CCN(c3cccc(Cl)c3)CC2)nc1=S` gave Lamin A splicing -4%, Sfp inh -15%, G9a inh -16%[59 µM], miR-21 reporter -1%, JMJD2E inh inconclusive and ALDH1A1 block 14µM*.
`CCn1c(C)c(C(C)=O)c(N2CCN(c3ccc(OC)cc3)CC2)nc1=S` gave Lamin A splicing 3%[46 µM], Sfp inh 22µM*, G9a inh 35µM*, miR-21 reporter -1%, JMJD2E inh -15% and ALDH1A1 block 25µM*.
Screening CCOC(=O)CNC(=S)N(CCCN1CCN(C)CC1)Cc1cccs1 returned Sfp inh 8%, G9a inh 17% and miR-21 reporter -1%.
For COc1ccc(NC(=O)CCc2c(C)nn(-c3ccc(N4CCCC4)nn3)c2C)cc1Cl the results were Lamin A splicing -4%[46 µM], G9a inh 2%[59 µM] and miR-21 reporter -60%.
O=C(/C=C/NCc1cccnc1)c1ccc(-c2ccccc2)cc1 was read as Sfp inh 10%, G9a inh inconclusive and miR-21 reporter -9%.
Screening COc1ccc(-n2c(=O)c3sc4ccccc4c3n(CC(=O)Nc3ccccc3F)c2=O)cc1 returned G9a inh 1%[59 µM] and miR-21 reporter 1%.
For CC[n+]1c(/C=C2\Sc3ccccc3N2C)ccc2cccc(C)c21 the results were Lamin A splicing inconclusive, Sfp inh inconclusive, G9a inh 25µM*, miR-21 reporter inconclusive, JMJD2E inh -22% and ALDH1A1 block inconclusive.

Overlap with the part before: 4 entries, then new ones.
For COc1ccc(NC(=O)CCc2c(C)nn(-c3ccc(N4CCCC4)nn3)c2C)cc1Cl the results were Lamin A splicing -4%[46 µM], G9a inh 2%[59 µM] and miR-21 reporter -60%.
O=C(/C=C/NCc1cccnc1)c1ccc(-c2ccccc2)cc1 was read as Sfp inh 10%, G9a inh inconclusive and miR-21 reporter -9%.
Screening COc1ccc(-n2c(=O)c3sc4ccccc4c3n(CC(=O)Nc3ccccc3F)c2=O)cc1 returned G9a inh 1%[59 µM] and miR-21 reporter 1%.
For CC[n+]1c(/C=C2\Sc3ccccc3N2C)ccc2cccc(C)c21 the results were Lamin A splicing inconclusive, Sfp inh inconclusive, G9a inh 25µM*, miR-21 reporter inconclusive, JMJD2E inh -22% and ALDH1A1 block inconclusive.
`CC(=S)/C=C1\Sc2ccccc2N1C` gave Lamin A splicing 7%, Sfp inh 45µM*, G9a inh inconclusive, miR-21 reporter -3%, JMJD2E inh -11% and ALDH1A1 block inconclusive.
For CC[n+]1ccccc1/C=C1\Sc2ccc(C)cc2N1C the results were Sfp inh -9%, G9a inh 43%[0.501 µM] and miR-21 reporter 29%.
For CN1/C(=C/c2cccc[n+]2CCO)Sc2ccccc21 the results were Sfp inh -1%, G9a inh 45µM* and miR-21 reporter 4%.
Screening COc1ccc(C(=O)/C=C2\Sc3ccccc3N2C)cc1 returned Lamin A splicing 4%[46 µM], Sfp inh 0%, G9a inh inconclusive, miR-21 reporter -35%, JMJD2E inh inconclusive and ALDH1A1 block inconclusive.
CCN1/C(=C/c2ccc3cc(C)ccc3[n+]2CC)Sc2ccccc21 was read as Lamin A splicing inconclusive, Sfp inh 11µM*, G9a inh 7.9µM*, miR-21 reporter inconclusive, JMJD2E inh -4% and ALDH1A1 block -11%.
`CCN1/C(=C/c2ccc3cc(C)ccc3[n+]2CC)Sc2cc(C)c(C)cc21` gave Lamin A splicing inconclusive, Sfp inh 25µM*, G9a inh 14µM*, miR-21 reporter inconclusive, JMJD2E inh inconclusive and ALDH1A1 block -6%.
Screening OC(COc1ccc2ccccc2c1Br)Cn1cnc(-c2ccccc2)c1 (stereo not drawn) returned Lamin A splicing inconclusive, Sfp inh -17%, G9a inh inconclusive, miR-21 reporter -9%, JMJD2E inh -9% and ALDH1A1 block -7%.
`OC(COc1ccc(Br)cc1)Cn1ccnc1` (stereo not drawn) gave Sfp inh 2%, G9a inh 79µM* and miR-21 reporter 1%.
Screening COc1cc(OC)cc(OCC(O)Cn2ccnc2)c1 (stereo not drawn) returned Lamin A splicing -3%, Sfp inh 8%, G9a inh 11%, miR-21 reporter 1%, JMJD2E inh 0% and ALDH1A1 block 1%.
Screening COc1ccc(OCC(O)Cn2cnc(-c3ccc(Br)cc3)c2)cc1 (stereo not drawn) returned Lamin A splicing inconclusive, Sfp inh 5%, G9a inh 18µM*, miR-21 reporter -7%, JMJD2E inh 0% and ALDH1A1 block -16%.
Screening S=c1nc(Cc2ccccc2)[nH]c2ccccc12 returned Sfp inh 29%, G9a inh 19% and miR-21 reporter -18%.
Screening S=c1nc(COc2ccccc2)[nH]c2ccccc12 returned Sfp inh 32µM*, G9a inh 18µM* and miR-21 reporter -58%.
Cc1nc(=S)c2ccccc2[nH]1 was read as Lamin A splicing -1%, Sfp inh -22%, G9a inh inconclusive, miR-21 reporter -13%, JMJD2E inh -4% and ALDH1A1 block 7.1µM*.
